Reference: patent US5763395A, “Stabilized lanthionine bacteriocin compositions” (Ambi Inc., priority 1995, dated 1998)

Assay: Nisin stability in topical germicide formulations under stressed conditions (RPHPLC)
Details: for Residual nisin concentration: 2 weeks at 40° C., nisin formulated at 25 μg/ml, label nisin = water control
Text: i) Analytical reverse phase high pressure liquid chromatography (RPHPLC). The analyte (nisin) in solution is passed through a column of hydrophic beads to which the nisin tends to bind. The solution flowing through the column is then made progressively more hydrophobic by increasing acetonitrile concentration until it causes the nisin to be released from the beads and eluted from the column. The emergence of the nisin from the column is detected by measuring the absorbance of light at 210 nm by the effluent.
In order to expedite the execution of these experiments the formulations were subjected to "stressed" conditions, ie pH 6 and 40° C.; both intended to accelerate any degradation effects taking place. The stability of nisin in the formulations was evaluated by RPHPLC.
Formulations were prepared with nisin at 25 μg/ml and titrated to pH 6. […]

Substance: glutathione (oxidized)
- Residual nisin concentration (T-MAZ 20 BATCH 348): 7.6 µg/mL
- Residual nisin concentration (T-MAZ 20 BATCH 357): 14.1 µg/mL
- Stabilization of nisin from degradation by sulfur-containing compounds, in words (nisin 25 μg/ml, T-MAZ 20, propyleneglycol, 1-propanol, EDTA or citrate, pH 6, 40° C.): did not stabilize nisin from degradation
